Results on one compound are retold here after article PMC9822058, “In Vitro Evaluation of α-amylase and α-glucosidase Inhibition of 2,3-Epoxyprocyanidin C1 and Other Constituents from Pterocarpus erinaceus Poir” (Molecules, 2022).

Protein sequences, listed by entry. Tags and fused reporters are not part of them. Residues count along the entry.
UniProt P06278, 30-512: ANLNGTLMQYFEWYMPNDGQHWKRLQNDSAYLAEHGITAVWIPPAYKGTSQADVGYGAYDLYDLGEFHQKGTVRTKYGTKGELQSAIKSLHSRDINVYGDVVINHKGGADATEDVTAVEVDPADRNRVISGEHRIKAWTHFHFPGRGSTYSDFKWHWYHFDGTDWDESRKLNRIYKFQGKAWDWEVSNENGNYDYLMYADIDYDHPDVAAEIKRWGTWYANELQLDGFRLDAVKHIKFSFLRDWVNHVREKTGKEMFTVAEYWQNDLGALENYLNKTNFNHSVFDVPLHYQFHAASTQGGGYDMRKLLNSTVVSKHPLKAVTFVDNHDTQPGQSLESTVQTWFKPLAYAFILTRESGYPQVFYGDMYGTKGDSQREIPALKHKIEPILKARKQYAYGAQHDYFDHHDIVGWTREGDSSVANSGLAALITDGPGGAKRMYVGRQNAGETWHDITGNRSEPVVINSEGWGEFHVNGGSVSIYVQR

The experiment concerns the target α-amylase from Bacillus licheniformis (Bacillus licheniformis, UniProt P06278). The experiment is described as follows: biochemical. The method, then:
The α-amylase inhibitory activity was evaluated by using the starch– iodine method with some modifications. The enzyme α-amylase from Bacillus licheniformis was used and enzyme solution was prepared with phosphate buffer (20 mM pH = 6.9 phosphate buffer prepared with 6 mM NaCl); then, 50 µL of α-amylase and 25 µL of different concentrations of compound or extract solutions were mixed in a 96-well microplate. The mixture was pre-incubated for 10 min at 37 °C; then, 50 µL of starch solution (0.05%) was added and incubated for 10 min at 37 °C. Following incubation, the reaction was completed by adding HCl (0.1 M, 25 µL) and Lugol (100 µL) solutions, and the absorbance was recorded at 565 nm.
Acarbose was used as a standard compound for both analyses.

On to `C[C@H]1O[C@H](O[C@H]2[C@H](O)[C@@H](O)[C@@H](O[C@H]3[C@H](O)[C@@H](O)C(O)O[C@@H]3CO)O[C@@H]2CO)[C@H](O)[C@@H](O)[C@@H]1N[C@H]1C=C(CO)[C@@H](O)[C@H](O)[C@H]1O` (stereo partly shown) [Acarbose, reference compound], for which the 50% inhibitory concentration (IC50) is 40.9 µM.
